The subject of the experiment is IDH2 (R140Q) in TF-1 cells. Briefly: Histone hypermethylation, Western blot, TF-1 IDH2 (R140Q) cells. Conditions: 7 days of treatment; read-out: IC50 for histone demethylation at H3K4me3. The format is cell-based. A general note: Immunoblotting shows a protein as a band on a membrane.

As usually defined, the IC50 is the point on the concentration scale where inhibition reaches its midpoint. Regarding “2-Methyl-1-[(4-[6-(trifluoromethyl)pyridin-2-yl]-6-{[2-(trifluoromethyl)pyridin-4-yl]amino}-1,3,5-triazin-2-yl)amino]propan-2-ol methanesulfonate [compound 1]”, the half-inhibitory concentration (IC50) is 236 nM.
